AlphaSeq binding of Ab-95 light chain variants to a spike HR2 peptide

The measurements come from Engelhart et al. 2022 (doi:10.1038/s41597-022-01779-4) through the FLAb antibody collection.

Target peptide (SARS-CoV-2 spike, HR2 region): PDVDLGDISGINAS

The variants keep the heavy chain, the linker and the frameworks of Ab-95 (scFv order VH, a 15-residue (Gly4Ser)3 linker, VL).
VH: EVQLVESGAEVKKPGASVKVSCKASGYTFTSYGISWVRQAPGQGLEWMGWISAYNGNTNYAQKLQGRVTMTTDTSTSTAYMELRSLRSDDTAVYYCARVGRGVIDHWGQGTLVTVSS
VL: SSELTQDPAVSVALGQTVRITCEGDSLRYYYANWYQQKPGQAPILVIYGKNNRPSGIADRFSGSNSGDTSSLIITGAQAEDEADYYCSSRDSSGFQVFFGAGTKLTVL

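Library AAYL52 holds single substitutions and randomly drawn double and triple substitutions in the CDRs. The assay is AlphaSeq: two haploid yeast populations carry antibody and antigen on their surface. Mating (16 h, 30 °C) was followed by selection of diploids and sequencing of their barcodes. A regression on co-assayed BCL2-family reference pairs converts the normalised counts of each replicate to an apparent Kd. Mating was done three times.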

Positions count from residue 1 of the parent VL; E23G puts G in place of E.
Every variant below is changed at G49 of the VL (sequential numbering).
Values are log10 of the apparent Kd in nM; lower means stronger binding.
A mean of the replicates is given; it leaves out those without a signal.
An entry "no signal" has no value in the source: the pair was not observed among the diploids in any replicate. This suggests poor binding but is not conclusive.
Entries are sorted by rising average, undetected variants last.
Three control strains display no target. For library AAYL52, 28% of the pairings with them gave a signal, with a median of 3.91 and one signal in twenty below 2.90, so weak values seen in few replicates may be background. The control count says in how many pairings with the empty strains this scFv gave a signal.

The variant E23G/Y31Q/G49A gave 2.02 (3 of 3 replicates; controls 4 of 9).
The variant Y31E/G49Q/S92H gave 2.56 (2 of 3 replicates; controls 0 of 9).
The variant G49N/V97M gave 2.75 (3 of 3 replicates; controls 3 of 9).
The variant G49N/N52H gave 2.80 (3 of 3 replicates; controls 1 of 9).
The variant G24P/G49D/S55T gave 3.11 (2 of 3 replicates; controls 1 of 9).
The variant L27R/G49M gave 3.25 (3 of 3 replicates; controls 2 of 9).
The variant R28F/G49C/F95W gave 3.42 (1 of 3 replicates; controls 4 of 9).
The variant G49A/K50N/Q96D gave 3.43 (2 of 3 replicates; controls 3 of 9).
The variant S26A/R28P/G49A gave 3.43 (1 of 3 replicates; controls 2 of 9).
The variant A32W/G49Q/K50A gave 3.53 (3 of 3 replicates; controls 3 of 9).
The variant G49T/R53K gave 3.59 (3 of 3 replicates; controls 3 of 9).
The variant G49T/S89D/R90M gave 3.61 (2 of 3 replicates; controls 6 of 9).
The variant G49M/N52D/Q96V gave 3.64 (2 of 3 replicates; controls 4 of 9).
The variant R28G/A32C/G49D gave 3.74 (3 of 3 replicates; controls 3 of 9).
The variant G49C/S93H/G94I gave 3.85 (1 of 3 replicates; controls 3 of 9).
The variant S26T/G49C/S89F gave 3.95 (1 of 3 replicates; controls 1 of 9).
The variant G49H/F95D/Q96E gave 3.97 (3 of 3 replicates; controls 2 of 9).
The variant G49F/P54S/S55E gave 4.03 (2 of 3 replicates; controls 2 of 9).
The variant L27W/G49C/K50V gave 4.04 (3 of 3 replicates; controls 5 of 9).
The variant Y30D/G49W/R90S gave 4.04 (3 of 3 replicates; controls 3 of 9).
The variant G49Y/S55V/F95M gave 4.12 (1 of 3 replicates; controls 3 of 9).
The variant A32Q/N33Q/G49I gave 4.16 (1 of 3 replicates; controls 3 of 9).
The variant G49M gave 4.18 (1 of 3 replicates; controls 1 of 9).
The variant L27T/G49K/S92G gave 4.24 (2 of 3 replicates; controls 2 of 9).
The variant E23L/G49Y/R53H gave 4.36 (2 of 3 replicates; controls 2 of 9).
The variant G49A/S55R/S88C gave 4.43 (1 of 3 replicates; controls 3 of 9).
The variant Y31P/G49I/N52R gave 4.50 (2 of 3 replicates; controls 1 of 9).
The variant G49K/S55Y/S89C gave 4.55 (1 of 3 replicates; controls 2 of 9).
The variant G49K/R90I/D91G gave 4.58 (1 of 3 replicates; controls 4 of 9).
The variant G49P/N51G/P54I gave 4.69 (1 of 3 replicates; controls 4 of 9).
The variant Y30D/G49D/Q96D gave 4.77 (1 of 3 replicates; controls 1 of 9).
The variant S26Y/G49M/R53H gave 4.80 (2 of 3 replicates; controls 2 of 9).
The variant G49K/P54M/Q96I gave 4.88 (1 of 3 replicates; controls 2 of 9).
The variant N33P/G49L/S93H gave 4.88 (1 of 3 replicates; controls 2 of 9).
The variant Y30C/G49D/S88F gave 5.07 (1 of 3 replicates; controls 1 of 9).
The variant L27A/G49M/R53D gave 5.12 (1 of 3 replicates; controls 1 of 9).
The variant A32T/G49Y/F95M gave 5.47 (1 of 3 replicates; controls 3 of 9).
The variant N33P/G49R/K50N gave no signal (0 of 3 replicates; controls 2 of 9).
The variant Y29L/G49C/S92L gave no signal (0 of 3 replicates; controls 1 of 9).
The variant G49V/N52L gave no signal (0 of 3 replicates; controls 2 of 9).
The variant A32G/G49I/S89R gave no signal (0 of 3 replicates; controls 2 of 9).
The variant G49R/K50E/N52Y gave no signal (0 of 3 replicates; controls 1 of 9).
The variant G49R/S89V/G94H gave no signal (0 of 3 replicates; controls 2 of 9).
The variant A32W/G49P/V97W gave no signal (0 of 3 replicates; controls 4 of 9).
The variant R28E/G49W gave no signal (0 of 3 replicates; controls 4 of 9).
The variant S26C/G49W gave no signal (0 of 3 replicates; controls 2 of 9).
The variant G49S/R53V/S88D gave no signal (0 of 3 replicates; controls 2 of 9).
The variant G49L/P54T/R90L gave no signal (0 of 3 replicates; controls 1 of 9).
The variant R28F/G49L/S89A gave no signal (0 of 3 replicates; controls 0 of 9).
The variant E23W/N33V/G49L gave no signal (0 of 3 replicates; controls 2 of 9).
The variant Y31R/G49H/G94D gave no signal (0 of 3 replicates; controls 1 of 9).

The 4 strongest on average among those seen in every replicate, once more:

changes,mean log10 Kd (nM),replicates with signal,signal with controls
E23G/Y31Q/G49A,2.02,3 of 3,4 of 9
G49N/V97M,2.75,3 of 3,3 of 9
G49N/N52H,2.80,3 of 3,1 of 9
L27R/G49M,3.25,3 of 3,2 of 9